Assay results taken from patent EP4834897A1, “COMPOUNDS WITH TWO AZAHETEROCYCLES SUBSTITUTED ISOINDOLINONE SKELETON AND USES THEREOF” (dated 2026).

By UniProt entry, the sequences of proteins in these tests, tags left out.
UniProt Q96SW2, whole entry: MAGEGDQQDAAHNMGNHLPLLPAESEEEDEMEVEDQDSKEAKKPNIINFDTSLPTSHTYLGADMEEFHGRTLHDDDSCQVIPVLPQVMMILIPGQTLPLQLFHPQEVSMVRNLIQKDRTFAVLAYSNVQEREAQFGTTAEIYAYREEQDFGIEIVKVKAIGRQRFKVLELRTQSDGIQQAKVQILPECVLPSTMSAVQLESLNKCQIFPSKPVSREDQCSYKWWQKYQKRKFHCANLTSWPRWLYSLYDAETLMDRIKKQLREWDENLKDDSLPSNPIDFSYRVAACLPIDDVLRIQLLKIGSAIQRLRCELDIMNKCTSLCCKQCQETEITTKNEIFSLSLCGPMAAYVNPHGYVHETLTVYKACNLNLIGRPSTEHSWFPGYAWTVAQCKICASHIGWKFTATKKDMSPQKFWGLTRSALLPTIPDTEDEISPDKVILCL
UniProt Q9UKS7, whole entry: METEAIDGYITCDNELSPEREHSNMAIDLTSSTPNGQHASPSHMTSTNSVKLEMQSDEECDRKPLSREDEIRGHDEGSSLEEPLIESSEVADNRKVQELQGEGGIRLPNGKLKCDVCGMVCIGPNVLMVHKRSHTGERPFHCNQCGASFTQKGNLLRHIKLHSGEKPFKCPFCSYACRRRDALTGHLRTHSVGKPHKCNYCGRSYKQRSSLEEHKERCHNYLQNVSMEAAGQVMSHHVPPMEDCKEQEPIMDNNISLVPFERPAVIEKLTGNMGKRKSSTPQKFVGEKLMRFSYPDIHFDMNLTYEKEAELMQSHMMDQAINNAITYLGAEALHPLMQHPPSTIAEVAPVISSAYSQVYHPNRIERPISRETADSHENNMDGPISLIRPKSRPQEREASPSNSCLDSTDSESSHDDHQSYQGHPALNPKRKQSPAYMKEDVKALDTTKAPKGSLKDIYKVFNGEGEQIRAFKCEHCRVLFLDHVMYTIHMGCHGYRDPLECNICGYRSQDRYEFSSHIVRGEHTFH
UniProt Q9UKT9, whole entry: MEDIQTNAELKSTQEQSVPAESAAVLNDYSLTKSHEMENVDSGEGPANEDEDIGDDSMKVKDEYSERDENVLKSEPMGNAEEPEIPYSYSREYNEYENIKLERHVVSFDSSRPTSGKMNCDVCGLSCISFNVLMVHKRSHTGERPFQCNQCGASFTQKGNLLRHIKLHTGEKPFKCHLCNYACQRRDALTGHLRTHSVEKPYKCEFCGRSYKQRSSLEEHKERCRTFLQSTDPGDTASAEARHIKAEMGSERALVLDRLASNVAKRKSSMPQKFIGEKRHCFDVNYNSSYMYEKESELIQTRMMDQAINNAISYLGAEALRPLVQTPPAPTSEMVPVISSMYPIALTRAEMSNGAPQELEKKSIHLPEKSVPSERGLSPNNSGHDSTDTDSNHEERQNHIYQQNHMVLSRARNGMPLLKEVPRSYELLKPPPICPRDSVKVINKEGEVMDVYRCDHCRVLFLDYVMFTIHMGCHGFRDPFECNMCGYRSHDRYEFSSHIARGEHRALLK
UniProt P30291, whole entry: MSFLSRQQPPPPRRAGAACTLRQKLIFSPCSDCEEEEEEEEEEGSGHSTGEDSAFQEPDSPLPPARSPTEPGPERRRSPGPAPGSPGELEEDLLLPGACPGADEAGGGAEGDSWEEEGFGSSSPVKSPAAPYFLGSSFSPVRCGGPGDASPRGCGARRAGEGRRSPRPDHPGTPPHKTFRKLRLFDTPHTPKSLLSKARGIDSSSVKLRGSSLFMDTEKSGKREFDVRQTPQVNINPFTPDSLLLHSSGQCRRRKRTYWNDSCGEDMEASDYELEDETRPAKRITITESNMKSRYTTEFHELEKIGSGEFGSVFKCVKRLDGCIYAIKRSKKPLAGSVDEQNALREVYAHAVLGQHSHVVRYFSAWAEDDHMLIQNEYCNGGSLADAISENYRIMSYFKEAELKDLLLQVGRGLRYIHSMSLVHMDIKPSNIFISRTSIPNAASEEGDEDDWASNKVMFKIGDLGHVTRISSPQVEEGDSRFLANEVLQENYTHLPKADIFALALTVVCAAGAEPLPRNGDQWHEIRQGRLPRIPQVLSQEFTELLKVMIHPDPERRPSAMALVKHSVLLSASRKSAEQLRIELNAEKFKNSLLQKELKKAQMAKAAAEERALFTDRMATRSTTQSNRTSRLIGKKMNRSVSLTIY
UniProt Q13422, whole entry: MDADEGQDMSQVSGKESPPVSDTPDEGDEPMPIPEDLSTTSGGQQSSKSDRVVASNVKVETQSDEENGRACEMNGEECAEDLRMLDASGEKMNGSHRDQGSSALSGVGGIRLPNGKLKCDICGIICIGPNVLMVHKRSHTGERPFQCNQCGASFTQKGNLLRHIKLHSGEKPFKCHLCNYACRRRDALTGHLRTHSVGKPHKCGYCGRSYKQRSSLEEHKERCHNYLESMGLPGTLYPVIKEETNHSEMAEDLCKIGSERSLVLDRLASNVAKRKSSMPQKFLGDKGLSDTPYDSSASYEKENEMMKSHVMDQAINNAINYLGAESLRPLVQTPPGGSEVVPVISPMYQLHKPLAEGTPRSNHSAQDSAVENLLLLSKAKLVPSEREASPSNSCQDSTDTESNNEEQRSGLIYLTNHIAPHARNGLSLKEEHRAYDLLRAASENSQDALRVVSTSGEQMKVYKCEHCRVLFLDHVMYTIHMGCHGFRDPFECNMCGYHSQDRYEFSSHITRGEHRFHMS
UniProt P15170, whole entry: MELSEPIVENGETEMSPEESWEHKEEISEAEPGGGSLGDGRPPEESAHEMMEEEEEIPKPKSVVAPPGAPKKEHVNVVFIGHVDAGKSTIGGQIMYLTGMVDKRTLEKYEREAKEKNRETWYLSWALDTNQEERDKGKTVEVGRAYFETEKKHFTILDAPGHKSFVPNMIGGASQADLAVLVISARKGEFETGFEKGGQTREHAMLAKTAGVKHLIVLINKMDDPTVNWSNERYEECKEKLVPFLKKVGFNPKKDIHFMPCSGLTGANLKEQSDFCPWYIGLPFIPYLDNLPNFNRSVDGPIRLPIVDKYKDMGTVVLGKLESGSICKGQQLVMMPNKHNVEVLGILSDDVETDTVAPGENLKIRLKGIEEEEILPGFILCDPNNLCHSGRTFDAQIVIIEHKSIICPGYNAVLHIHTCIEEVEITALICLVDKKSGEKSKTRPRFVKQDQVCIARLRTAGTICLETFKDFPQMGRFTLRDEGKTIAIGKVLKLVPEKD
UniProt P48729, whole entry: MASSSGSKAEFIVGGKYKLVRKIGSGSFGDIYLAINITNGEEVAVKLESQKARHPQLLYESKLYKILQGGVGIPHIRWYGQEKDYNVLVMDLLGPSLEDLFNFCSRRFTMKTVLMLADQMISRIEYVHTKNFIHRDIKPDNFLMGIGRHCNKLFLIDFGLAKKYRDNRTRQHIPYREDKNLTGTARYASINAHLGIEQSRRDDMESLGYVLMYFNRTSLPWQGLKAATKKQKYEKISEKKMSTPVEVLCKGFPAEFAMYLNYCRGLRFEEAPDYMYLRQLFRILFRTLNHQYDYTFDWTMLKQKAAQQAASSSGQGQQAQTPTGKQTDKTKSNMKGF
UniProt Q16531, whole entry partner: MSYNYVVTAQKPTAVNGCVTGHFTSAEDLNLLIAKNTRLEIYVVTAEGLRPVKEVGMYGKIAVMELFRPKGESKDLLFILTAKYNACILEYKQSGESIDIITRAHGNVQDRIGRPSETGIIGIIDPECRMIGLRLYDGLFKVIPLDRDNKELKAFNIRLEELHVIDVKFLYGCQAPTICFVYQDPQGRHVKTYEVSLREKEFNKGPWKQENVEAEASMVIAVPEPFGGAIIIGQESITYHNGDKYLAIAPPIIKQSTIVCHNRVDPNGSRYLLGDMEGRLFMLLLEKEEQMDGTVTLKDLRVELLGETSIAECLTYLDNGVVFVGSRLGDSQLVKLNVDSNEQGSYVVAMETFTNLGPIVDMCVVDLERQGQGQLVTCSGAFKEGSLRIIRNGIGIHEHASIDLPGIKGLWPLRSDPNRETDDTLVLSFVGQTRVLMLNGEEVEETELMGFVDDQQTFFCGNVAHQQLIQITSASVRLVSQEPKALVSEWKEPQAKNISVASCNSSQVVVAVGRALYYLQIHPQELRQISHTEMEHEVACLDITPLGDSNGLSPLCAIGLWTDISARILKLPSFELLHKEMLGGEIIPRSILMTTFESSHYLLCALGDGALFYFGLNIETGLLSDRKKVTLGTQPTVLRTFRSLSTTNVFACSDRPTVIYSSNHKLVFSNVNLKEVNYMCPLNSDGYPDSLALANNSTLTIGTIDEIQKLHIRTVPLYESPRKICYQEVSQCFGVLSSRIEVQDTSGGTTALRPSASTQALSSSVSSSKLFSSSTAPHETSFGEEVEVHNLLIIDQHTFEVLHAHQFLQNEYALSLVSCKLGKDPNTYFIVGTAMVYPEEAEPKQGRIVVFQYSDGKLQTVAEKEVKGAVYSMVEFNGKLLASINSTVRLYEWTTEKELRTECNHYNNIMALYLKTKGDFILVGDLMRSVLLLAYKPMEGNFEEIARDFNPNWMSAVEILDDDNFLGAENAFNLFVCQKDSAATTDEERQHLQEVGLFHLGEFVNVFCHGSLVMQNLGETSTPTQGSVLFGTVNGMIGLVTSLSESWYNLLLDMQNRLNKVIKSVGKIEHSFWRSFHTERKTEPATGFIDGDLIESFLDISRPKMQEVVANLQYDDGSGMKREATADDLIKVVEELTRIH

The molecules below were run against IKZF2 (Homo sapiens, UniProt Q96SW2+Q9UKS7) (assay: Western blot assay of substrate protein degradation in hPBMCs). Details: 24 hours treatment, compounds at 50 nM and 500 nM (concentration behind the class not stated).

Structure (SMILES)	substrate protein remaining % (IKZF2)
O=C1CCC(N2C(=O)c3cccc(CN4CCC(N5CCN(C(c6ccccc6)c6ccccc6)CC5)C(F)(F)C4)c3C2=O)C(=O)N1 (centres unmarked)	A (0% ≤ substrate protein remaining % ≤ 80%)
O=C1CCC(N2C(=O)c3ccc(CN4CCC(N5CCN(C(c6ccccc6)c6ccccc6)CC5)CC4)cc3C2=O)C(=O)N1 (centres unmarked)	B (80%< substrate protein remaining %≤ 100%)

The molecules below were run against IKZF3 (Homo sapiens, UniProt Q96SW2+Q9UKT9) in the same assay as above. Details: 24 hours treatment, compounds at 50 nM and 500 nM (concentration behind the class not stated).

Structure (SMILES)	substrate protein remaining % (IKZF3)
O=C1CCC(N2C(=O)c3cccc(CN4CCC(N5CCN(C(c6ccccc6)c6ccccc6)CC5)C(F)(F)C4)c3C2=O)C(=O)N1 (centres unmarked)	B (80%< substrate protein remaining %≤ 100%)
O=C1CCC(N2C(=O)c3ccc(CN4CCC(N5CCN(C(c6ccccc6)c6ccccc6)CC5)CC4)cc3C2=O)C(=O)N1 (centres unmarked)	A (0% ≤ substrate protein remaining % ≤ 80%)

These molecules were tested against WEE1 (Homo sapiens, UniProt P30291+Q96SW2) in the same assay as above. Details: 24 hours treatment, compounds at 50 nM and 500 nM (concentration behind the class not stated).

Structure (SMILES)	substrate protein remaining % (WEE1)
O=C1CCC(N2C(=O)c3cccc(CN4CCC(N5CCN(C(c6ccccc6)c6ccccc6)CC5)C(F)(F)C4)c3C2=O)C(=O)N1 (centres unmarked)	B (80%< substrate protein remaining %≤ 100%)
O=C1CCC(N2C(=O)c3ccc(CN4CCC(N5CCN(C(c6ccccc6)c6ccccc6)CC5)CC4)cc3C2=O)C(=O)N1 (centres unmarked)	B (80%< substrate protein remaining %≤ 100%)

Each molecule was assayed against IKZF1 (Homo sapiens, UniProt Q13422+Q96SW2) in the same assay as above. Details: 24 hours treatment, compounds at 50 nM and 500 nM (concentration behind the class not stated).

Structure (SMILES)	substrate protein remaining % (IKZF 1)
O=C1CCC(N2C(=O)c3cccc(CN4CCC(N5CCN(C(c6ccccc6)c6ccccc6)CC5)C(F)(F)C4)c3C2=O)C(=O)N1 (centres unmarked)	B (80%< substrate protein remaining %≤ 100%)
O=C1CCC(N2C(=O)c3ccc(CN4CCC(N5CCN(C(c6ccccc6)c6ccccc6)CC5)CC4)cc3C2=O)C(=O)N1 (centres unmarked)	B (80%< substrate protein remaining %≤ 100%)

What follows are molecules tested against GSPT1 (Homo sapiens, UniProt P15170+Q96SW2) in the same assay as above. Details: 24 hours treatment, compounds at 50 nM and 500 nM (concentration behind the class not stated).

Structure (SMILES)	substrate protein remaining % (GSPT1)
O=C1CCC(N2C(=O)c3cccc(CN4CCC(N5CCN(C(c6ccccc6)c6ccccc6)CC5)C(F)(F)C4)c3C2=O)C(=O)N1 (centres unmarked)	B (80%< substrate protein remaining %≤ 100%)
O=C1CCC(N2C(=O)c3ccc(CN4CCC(N5CCN(C(c6ccccc6)c6ccccc6)CC5)CC4)cc3C2=O)C(=O)N1 (centres unmarked)	B (80%< substrate protein remaining %≤ 100%)

What follows are molecules tested against CK1α (Homo sapiens, UniProt P48729+Q96SW2) in the same assay as above. Details: 24 hours treatment, compounds at 50 nM and 500 nM (concentration behind the class not stated).

Structure (SMILES)	substrate protein remaining % (CK1a)
O=C1CCC(N2C(=O)c3cccc(CN4CCC(N5CCN(C(c6ccccc6)c6ccccc6)CC5)C(F)(F)C4)c3C2=O)C(=O)N1 (centres unmarked)	B (80%< substrate protein remaining %≤ 100%)
O=C1CCC(N2C(=O)c3ccc(CN4CCC(N5CCN(C(c6ccccc6)c6ccccc6)CC5)CC4)cc3C2=O)C(=O)N1 (centres unmarked)	B (80%< substrate protein remaining %≤ 100%)

These molecules were tested on IL-1α (assay: Inflammatory cytokine release from PBMCs induced by PHA (flow cytometry CBA)). Details: 0.1 µM, PHA 1 µg/mL, 24 h.

Structure (SMILES)	Inhibition Rate (%) IL-1α
O=C1CCC(N2C(=O)c3cccc(CN4CCC(N5CCN(C(c6ccccc6)c6ccccc6)CC5)C(F)(F)C4)c3C2=O)C(=O)N1 (centres unmarked)	IV10 (50% < IV 10 ≤ 60%)
O=C1CCC(N2C(=O)c3ccc(CN4CCC(N5CCN(C(c6ccccc6)c6ccccc6)CC5)CC4)cc3C2=O)C(=O)N1 (centres unmarked)	IV11 (60% < IV11 ≤ 70%)

Same assay, conditions: 1 µM, PHA 1 µg/mL, 24 h

Structure (SMILES)	Inhibition Rate (%) IL-1α
O=C1CCC(N2C(=O)c3cccc(CN4CCC(N5CCN(C(c6ccccc6)c6ccccc6)CC5)C(F)(F)C4)c3C2=O)C(=O)N1 (centres unmarked)	IV1 1
O=C1CCC(N2C(=O)c3ccc(CN4CCC(N5CCN(C(c6ccccc6)c6ccccc6)CC5)CC4)cc3C2=O)C(=O)N1 (centres unmarked)	IV5 (0% < IV5 ≤ 10%)

What follows are molecules tested on TNF-α in the same assay as above. Details: 0.1 µM, PHA 1 µg/mL, 24 h.

Structure (SMILES)	Inhibition Rate (%) TNF-α
O=C1CCC(N2C(=O)c3cccc(CN4CCC(N5CCN(C(c6ccccc6)c6ccccc6)CC5)C(F)(F)C4)c3C2=O)C(=O)N1 (centres unmarked)	IV10 (50% < IV 10 ≤ 60%)
O=C1CCC(N2C(=O)c3ccc(CN4CCC(N5CCN(C(c6ccccc6)c6ccccc6)CC5)CC4)cc3C2=O)C(=O)N1 (centres unmarked)	IV11 (60% < IV11 ≤ 70%)

Same assay, conditions: 1 µM, PHA 1 µg/mL, 24 h

Structure (SMILES)	Inhibition Rate (%) TNF-α
O=C1CCC(N2C(=O)c3cccc(CN4CCC(N5CCN(C(c6ccccc6)c6ccccc6)CC5)C(F)(F)C4)c3C2=O)C(=O)N1 (centres unmarked)	IV1 0
O=C1CCC(N2C(=O)c3ccc(CN4CCC(N5CCN(C(c6ccccc6)c6ccccc6)CC5)CC4)cc3C2=O)C(=O)N1 (centres unmarked)	IV8 (30% < IV8 ≤ 40%)

Each molecule was assayed on IL-2 in the same assay as above. Details: 0.1 µM; PBMCs, PHA 1 µg/mL, 24 h.

Structure (SMILES)	Inhibition Rate (%) IL-2
O=C1CCC(N2C(=O)c3cccc(CN4CCC(N5CCN(C(c6ccccc6)c6ccccc6)CC5)C(F)(F)C4)c3C2=O)C(=O)N1 (centres unmarked)	IV10 (50% < IV 10 ≤ 60%)
O=C1CCC(N2C(=O)c3ccc(CN4CCC(N5CCN(C(c6ccccc6)c6ccccc6)CC5)CC4)cc3C2=O)C(=O)N1 (centres unmarked)	IV11 (60% < IV11 ≤ 70%)

Same assay, conditions: 1 µM; PBMCs, PHA 1 µg/mL, 24 h

Structure (SMILES)	Inhibition Rate (%) IL-2
O=C1CCC(N2C(=O)c3cccc(CN4CCC(N5CCN(C(c6ccccc6)c6ccccc6)CC5)C(F)(F)C4)c3C2=O)C(=O)N1 (centres unmarked)	IV9 (40% < IV9 ≤ 50%)
O=C1CCC(N2C(=O)c3ccc(CN4CCC(N5CCN(C(c6ccccc6)c6ccccc6)CC5)CC4)cc3C2=O)C(=O)N1 (centres unmarked)	IV9 (40% < IV9 ≤ 50%)

Each molecule was assayed on IL-10 in the same assay as above. Details: 0.1 µM; PBMCs, PHA 1 µg/mL, 24 h.

Structure (SMILES)	Inhibition Rate (%) IL-10
O=C1CCC(N2C(=O)c3ccc(CN4CCC(N5CCN(C(c6ccccc6)c6ccccc6)CC5)CC4)cc3C2=O)C(=O)N1 (centres unmarked)	IV9 (40% < IV9 ≤ 50%)

Same assay, conditions: 1 µM; PBMCs, PHA 1 µg/mL, 24 h

Structure (SMILES)	Inhibition Rate (%) IL-10
O=C1CCC(N2C(=O)c3ccc(CN4CCC(N5CCN(C(c6ccccc6)c6ccccc6)CC5)CC4)cc3C2=O)C(=O)N1 (centres unmarked)	IV7 (20% < IV7 ≤ 30%)

The molecules below were run on GM-CSF (assay: Inflammatory cytokine release from PBMCs induced by PMA + Ionomycin (flow cytometry CBA)). Details: 0.1 µM, 24 h.

Structure (SMILES)	Inhibition Rate (%) GM-CSF
O=C1CCC(N2C(=O)c3cccc(CN4CCC(N5CCN(C(c6ccccc6)c6ccccc6)CC5)C(F)(F)C4)c3C2=O)C(=O)N1 (centres unmarked)	IV10 (50% < IV 10 ≤ 60%)
O=C1CCC(N2C(=O)c3ccc(CN4CCC(N5CCN(C(c6ccccc6)c6ccccc6)CC5)CC4)cc3C2=O)C(=O)N1 (centres unmarked)	IV9 (40% < IV9 ≤ 50%)

Same assay, conditions: 1 µM, 24 h

Structure (SMILES)	Inhibition Rate (%) GM-CSF
O=C1CCC(N2C(=O)c3cccc(CN4CCC(N5CCN(C(c6ccccc6)c6ccccc6)CC5)C(F)(F)C4)c3C2=O)C(=O)N1 (centres unmarked)	IV9 (40% < IV9 ≤ 50%)
O=C1CCC(N2C(=O)c3ccc(CN4CCC(N5CCN(C(c6ccccc6)c6ccccc6)CC5)CC4)cc3C2=O)C(=O)N1 (centres unmarked)	IV8 (30% < IV8 ≤ 40%)

The molecules below were run on IL-5 in the same assay as above. Details: 0.1 µM, 24 h.

Structure (SMILES)	Inhibition Rate (%) IL-5
O=C1CCC(N2C(=O)c3ccc(CN4CCC(N5CCN(C(c6ccccc6)c6ccccc6)CC5)CC4)cc3C2=O)C(=O)N1 (centres unmarked)	IV10 (50% < IV 10 ≤ 60%)

Same assay, conditions: 1 µM, 24 h

Structure (SMILES)	Inhibition Rate (%) IL-5
O=C1CCC(N2C(=O)c3ccc(CN4CCC(N5CCN(C(c6ccccc6)c6ccccc6)CC5)CC4)cc3C2=O)C(=O)N1 (centres unmarked)	IV8 (30% < IV8 ≤ 40%)
